Test results taken from patent US20090186832A1 (priority 2008, published 2009).
“And” between values parts separate entries of the source, which are not always exact repeats. Equal entries are not always repeated. Where two headings read alike, the source gives them in different places. Marks after values point to notes of the source that are not given here.

How the values were obtained:
[1] = not given; remark: listed apart in the source
[2] = analyte intact prodrug, oral 0.5 mg buprenorphine free base equivalents/kg, mean of 5 dogs
[3] = plasma buprenorphine, oral, dogs

Q: With `CO[C@]12CC[C@@]3(C[C@@H]1[C@@](C)(O)C(C)(C)C)[C@H]1Cc4ccc(OC(=O)N[C@@H](C(=O)O)C(C)C)c5c4[C@@]3(CCN1CC1CC1)C2O5` (some centres unmarked) as the molecule, how does the “circulating plasma prodrug concentrations exceeding those of the parent drug” value (after oral prodrug, dogs) read?
A: 100 fold

Q: And the “Buprenorphine valine carbamate t½” value (analyte intact prodrug, oral 0.5 mg buprenorphine free base equivalents/kg, calculated as ln2/mean k)?
A: 4.8^b h

Q: What about the “Buprenorphine valine carbamate Tmax” value (analyte intact prodrug, oral 0.5 mg buprenorphine free base equivalents/kg, individual dogs 1-5) of the same molecule?
A: 1 h (4×) and 2 h

Q: And the “Buprenorphine valine carbamate AUC24” value [2]?
A: 2500 ng·h/mL

Q: And the “Buprenorphine valine carbamate AUCt” value [2]?
A: 2360 ng·h/mL

Q: And the “Buprenorphine valine carbamate Cmax” value [2]?
A: 293 ng/mL

Q: And the “Buprenorphine valine carbamate Tmax” value (analyte intact prodrug, oral 0.5 mg buprenorphine free base equivalents/kg, median value)?
A: 1^a h

Q: What about the “AUC (mean ngh/mL ± SD)” value (plasma buprenorphine, 0.5 mg buprenorphine free base/kg, group1 dogs) of the same molecule?
A: 23.2 ± 11.3 ngh/mL

Q: What about the “overall mean exposure (AUC) relative to parent drug” value [3] of the same molecule?
A: seven to nine fold greater

Q: And the “period for which plasma drug concentrations remained above 50% of the Cmax values” [3]?
A: 5.0 h

Q: And the “Distilled water (pH 5.9): % remaining after 2h/20° C.” value ([1]; distilled water pH 5.9, 2 h, 20° C.)?
A: 100%

Q: What about the “pH 10.0 buffer: % remaining after 2 h/20° C.” value ([1]; pH 10.0 buffer, 2 h, 20° C.) of the same molecule?
A: 74%

Q: What about the “Simulated gastric fluid (pH 1.1): % remaining after 2 h/37° C.” value ([1]; simulated gastric fluid pH 1.1, 2 h, 37° C.) of the same molecule?
A: 100%

Q: What about the “Simulated intestinal fluid (pH 6.8): % remaining after 2 h/37° C.” value ([1]; simulated intestinal fluid pH 6.8, 2 h, 37° C.) of the same molecule?
A: 98%
